This passage reports inhibition results from ChEMBL document CHEMBL4706521, “Synthesis of indole inhibitors of silent information regulator 1 (SIRT1), and their evaluation as cytotoxic agents” (Eur J Med Chem, 2020).

Molecules are shown by their SMILES.

The target in the test is T1, NAD-dependent protein deacetylase sirtuin-2 (Homo sapiens) (UniProt Q8IXJ6).
T1 sequence (whole entry): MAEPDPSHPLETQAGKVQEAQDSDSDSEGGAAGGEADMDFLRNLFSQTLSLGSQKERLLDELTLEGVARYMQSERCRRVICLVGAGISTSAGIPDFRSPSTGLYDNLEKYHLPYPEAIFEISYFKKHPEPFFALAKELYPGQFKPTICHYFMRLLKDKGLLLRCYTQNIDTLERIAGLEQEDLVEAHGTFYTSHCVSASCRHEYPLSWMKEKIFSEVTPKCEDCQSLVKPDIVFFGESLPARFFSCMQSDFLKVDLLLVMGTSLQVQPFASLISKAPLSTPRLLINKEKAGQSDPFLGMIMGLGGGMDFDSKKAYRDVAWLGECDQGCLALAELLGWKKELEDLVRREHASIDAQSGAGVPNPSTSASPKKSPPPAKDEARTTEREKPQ
The experiment in a line: Inhibition of recombinant human SIRT2 expressed in baculovirus infected SF9 cells expression system using RHKK(Ac)W-NH2 as substrate at 100 uM measured after 20 mins by HPLC method.

For `CC(C)c1c(CC(N)=O)[nH]c2ccc(Cl)cc12`, the inhibition (usually the drop in the measured response relative to a control, in per cent) came out at 54%.
